Usually Ki stands for a dissociation constant, usually derived from enzyme kinetics or from competition with a known ligand. Lower therefore signals tighter binding. As usually defined, the IC50 is the midpoint of a concentration-inhibition curve.

Amino acid sequences for entries named in this document (tags omitted). Residues count along the entry.
UniProt P35222, 2-781 R469A limits assumed: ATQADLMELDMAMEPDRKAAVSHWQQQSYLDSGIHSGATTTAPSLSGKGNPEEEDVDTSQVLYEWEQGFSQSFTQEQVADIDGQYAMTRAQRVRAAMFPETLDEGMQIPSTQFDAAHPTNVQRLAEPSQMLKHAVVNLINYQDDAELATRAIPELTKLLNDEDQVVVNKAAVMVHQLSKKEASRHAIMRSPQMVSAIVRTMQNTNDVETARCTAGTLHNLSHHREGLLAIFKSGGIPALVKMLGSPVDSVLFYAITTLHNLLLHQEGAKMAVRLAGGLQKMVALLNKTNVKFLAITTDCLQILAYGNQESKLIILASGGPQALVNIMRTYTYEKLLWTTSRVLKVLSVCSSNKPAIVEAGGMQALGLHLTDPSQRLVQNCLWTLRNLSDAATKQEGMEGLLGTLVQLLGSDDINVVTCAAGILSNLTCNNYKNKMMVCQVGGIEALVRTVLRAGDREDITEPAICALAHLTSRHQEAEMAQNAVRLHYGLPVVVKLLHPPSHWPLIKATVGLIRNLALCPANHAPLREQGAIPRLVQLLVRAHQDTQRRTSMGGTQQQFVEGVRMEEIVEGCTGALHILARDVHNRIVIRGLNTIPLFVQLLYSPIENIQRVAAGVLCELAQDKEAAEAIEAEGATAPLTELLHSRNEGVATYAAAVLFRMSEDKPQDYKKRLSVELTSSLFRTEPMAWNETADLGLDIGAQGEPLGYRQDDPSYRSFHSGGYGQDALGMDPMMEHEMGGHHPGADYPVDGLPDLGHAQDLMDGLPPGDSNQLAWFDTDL
UniProt P35222, whole entry: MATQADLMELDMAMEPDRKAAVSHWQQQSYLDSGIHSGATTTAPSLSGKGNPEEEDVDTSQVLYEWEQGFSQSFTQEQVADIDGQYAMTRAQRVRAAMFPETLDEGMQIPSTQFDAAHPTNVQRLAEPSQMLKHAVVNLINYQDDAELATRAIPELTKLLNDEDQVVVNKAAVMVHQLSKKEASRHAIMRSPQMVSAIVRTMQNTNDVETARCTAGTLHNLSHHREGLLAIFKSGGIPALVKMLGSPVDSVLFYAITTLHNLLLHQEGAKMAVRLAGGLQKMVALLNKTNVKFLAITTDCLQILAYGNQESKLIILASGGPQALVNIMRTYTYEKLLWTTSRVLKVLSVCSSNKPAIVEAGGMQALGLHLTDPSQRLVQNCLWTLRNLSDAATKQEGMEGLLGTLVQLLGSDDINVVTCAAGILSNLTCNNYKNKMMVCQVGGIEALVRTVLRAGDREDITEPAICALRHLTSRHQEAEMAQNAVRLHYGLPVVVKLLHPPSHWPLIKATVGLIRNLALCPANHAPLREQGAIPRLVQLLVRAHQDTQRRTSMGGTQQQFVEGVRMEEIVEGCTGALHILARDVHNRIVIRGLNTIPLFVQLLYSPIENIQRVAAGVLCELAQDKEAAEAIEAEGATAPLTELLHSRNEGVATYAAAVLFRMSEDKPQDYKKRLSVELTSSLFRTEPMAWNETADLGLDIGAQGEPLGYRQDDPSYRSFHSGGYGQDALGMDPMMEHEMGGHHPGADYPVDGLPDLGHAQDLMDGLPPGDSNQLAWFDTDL

Assay [1] concerns the target Catenin beta-1 (Homo sapiens, UniProt P35222, R469A).
For assay [2], the target named is T1, Catenin beta-1 (Homo sapiens, UniProt P35222). Kind of assay: Inhibition of human wild-type beta-catenin (residues 138-686)/C-terminally fluorescein-labeled human E-cadherin (residues 819-873) interaction by FP competitive inhibition assay.
Assay [3] concerns the target T1, Catenin beta-1. Nature of the assay: Inhibition of human wild-type beta-catenin (residues 138-686)/C-terminally fluorescein labeled human wild-type Tcf4 (residues 7-51) interaction after […] by FP competitive inhibition assay.
In assay [4] the target is T1, Catenin beta-1. Kind of assay: Inhibition of human wild-type beta-catenin (residues 138-686)/C-terminally fluorescein-labeled human APC-R3 (residues 1477-1519) interaction by FP competitive inhibition assay.

Regarding `O=C(O)CCCn1c2ccccc2c2nc3nonc3nc21`, in assay [1], the Ki is 59 µM. Moreover, the results for the IC50 in assay [2], in assay [3] and in assay [4] were 170 µM, 15 µM and 340 µM, respectively.

The values are drawn from ChEMBL document CHEMBL3588842, “Discovery of Selective Small-Molecule Inhibitors for the β-Catenin/T-Cell Factor Protein-Protein Interaction through the Optimization of the Acyl Hydrazone Moiety” (J Med Chem, 2015).
